Target: human CB2 receptor (Homo sapiens, UniProt P34972)
Experiment: biochemical
Format: binding
Design: purchased Perkin Elmer/NEN; host or cells: CHO cells, stably transfected (membranes)
Experimental: In the present invention, binding affinity is represented by the IC50 value, namely the concentration of a test compound that will displace 50% of a radiolabeled agonist from the CB receptors. […] Preferably these ratios will be obtained for human CB1 and CB2 receptors. The selectivity toward CB2, denoted CB2/CB1 affinity, is calculated as the IC50 value obtained by the test compound for the displacement of the CB1 specific radioligand divided by the IC50 value obtained for the displacement of the CB2 specific radioligand, i.e. the IC50 CB1/IC50 CB2.
The affinities of the novel bicyclic analogs to the CB2 receptor were determined by their ability to displace [^3H]WIN 55212-2 from the receptor in membranes derived from hCB2 stably transfected CHO cells (Perkin Elmer/NEN). Membranes were diluted in assay buffer (10 mM HEPES, 1 mM MgCl2, 1 mM EDTA, 0.3 mg/ml BSA, pH=7.4) to 500 μg protein/ml. […] Non-specific binding was measured by the addition of 10 μM CP 55940. […] Filters for all binding assays were counted in a β-counter and log of analog concentration versus % of binding was plotted. […]
Binding to CB1 is measured by competitive inhibition of [^3H]CP55940 in HEK-293 cells stably transfected with the human CB1 receptor gene. Binding to CB2 is measured by competitive inhibition of [^3H]WIN55212-2 in CHO cells stably transfected with the human CB2 receptor gene.

Protein sequences, listed by entry. Tags and fused reporters are not part of them.
UniProt P34972, whole entry: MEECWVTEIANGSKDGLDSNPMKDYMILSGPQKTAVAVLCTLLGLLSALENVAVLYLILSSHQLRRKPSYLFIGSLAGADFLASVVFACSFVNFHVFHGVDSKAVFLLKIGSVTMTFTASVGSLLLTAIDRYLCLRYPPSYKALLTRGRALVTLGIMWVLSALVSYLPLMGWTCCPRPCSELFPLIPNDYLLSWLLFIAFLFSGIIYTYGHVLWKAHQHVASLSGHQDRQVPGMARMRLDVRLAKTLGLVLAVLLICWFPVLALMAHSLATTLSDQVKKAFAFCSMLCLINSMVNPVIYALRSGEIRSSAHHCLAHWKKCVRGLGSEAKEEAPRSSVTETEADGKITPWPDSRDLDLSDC

`CCCCCCC(C)(C)c1cc(OC)c(C2C=C(CO)C3CC2C3(C)C)c(OC)c1` (single isomer, unassigned; (+)) [HU-308, (+) {4-[4-(1,1-dimethylheptyl)-2,6-dimethoxy-phenyl]-6,6-dimethyl-bicyclo[3.1.1]hept-2-en-2-yl}-methanol, reference compound] showed an IC50 of 13.3 nM.

Reference: US20050020544A1, “Bicyclic CB2 cannabinoid receptor ligands” (priority 2002, published 2005)
